What was measured:
Assay type in all cases: biochemical
Details in all cases: substrate Fo-Met-Ala-Ser, 100 nM enzyme, 750 µM NiCl2, 37°C
AtPDF variant I130A = biological target: T1, AtPDF variant I130A (Arabidopsis thaliana, UniProt Q9FUZ2, I210A)
T1 construct: Expression and purification of mature Arabidopsis thaliana PDF1B and all variants (i.e., AtPDF); made in house
Description: (§1) Assay of PDF activity was coupled to formate dehydrogenase, where the absorbance of NADH at 340 nm was measured at 37°C as previously described. […] The kinetics parameters were derived from iterative non-linear least square calculations using the Michaelis-Menten equation based on the experimental data (Sigma-Plot; Kinetics module). […] The data were then calculated according to the method of Henderson, which can be used to determine the dissociation constant of the tight-binding competitive enzyme inhibitor [28],[49],[72] by varying both the inhibitor and substrate concentrations. To determine K I, k 5, and k 6, the reaction was initiated by the addition of enzyme as previously described,[49]. […] From the set of values obtained at various concentrations of I, k5 and k6 could be derived using kobs = k6 + k5[I]/(KI + [I]).
(§2) The enzyme concentration used in the assay was 100 nM.

By UniProt entry, the sequences of proteins in these tests, tags left out. Residues count along the entry.
UniProt Q9FUZ2, 57-273 I210A: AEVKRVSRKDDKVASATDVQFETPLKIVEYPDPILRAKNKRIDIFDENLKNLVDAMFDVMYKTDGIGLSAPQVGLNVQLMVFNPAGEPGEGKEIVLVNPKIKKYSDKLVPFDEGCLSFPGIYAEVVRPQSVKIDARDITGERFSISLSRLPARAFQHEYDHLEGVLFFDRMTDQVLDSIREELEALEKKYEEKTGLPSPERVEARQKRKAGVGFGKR
UniProt Q9FUZ2, 83-273 I122W: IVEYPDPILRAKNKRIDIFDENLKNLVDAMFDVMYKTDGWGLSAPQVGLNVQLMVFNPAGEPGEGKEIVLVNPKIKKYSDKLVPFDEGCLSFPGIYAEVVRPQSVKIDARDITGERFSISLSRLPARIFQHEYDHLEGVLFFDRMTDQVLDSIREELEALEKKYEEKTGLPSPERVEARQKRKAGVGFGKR
UniProt Q9FUZ2, 57-273 I122F: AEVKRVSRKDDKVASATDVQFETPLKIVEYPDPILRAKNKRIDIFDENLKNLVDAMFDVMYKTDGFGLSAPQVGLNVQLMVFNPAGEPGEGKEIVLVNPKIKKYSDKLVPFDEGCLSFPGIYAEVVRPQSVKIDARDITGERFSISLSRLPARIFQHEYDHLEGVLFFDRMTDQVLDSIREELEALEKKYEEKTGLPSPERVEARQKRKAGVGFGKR
UniProt Q9FUZ2, 57-273 I122N: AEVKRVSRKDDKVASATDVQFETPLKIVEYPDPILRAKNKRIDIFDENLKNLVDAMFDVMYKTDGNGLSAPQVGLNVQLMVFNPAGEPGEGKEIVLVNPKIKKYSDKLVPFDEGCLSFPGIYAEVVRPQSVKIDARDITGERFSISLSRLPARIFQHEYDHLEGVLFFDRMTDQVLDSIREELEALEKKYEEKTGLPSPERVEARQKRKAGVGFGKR
UniProt Q9FUZ2, 57-273 I122A: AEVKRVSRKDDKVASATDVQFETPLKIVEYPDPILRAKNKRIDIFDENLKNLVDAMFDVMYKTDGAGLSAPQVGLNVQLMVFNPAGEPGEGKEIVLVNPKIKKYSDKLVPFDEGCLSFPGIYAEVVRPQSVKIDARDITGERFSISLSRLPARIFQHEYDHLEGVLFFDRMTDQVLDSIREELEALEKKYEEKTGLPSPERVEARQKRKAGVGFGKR
UniProt Q9FUZ2, 57-273 G121M: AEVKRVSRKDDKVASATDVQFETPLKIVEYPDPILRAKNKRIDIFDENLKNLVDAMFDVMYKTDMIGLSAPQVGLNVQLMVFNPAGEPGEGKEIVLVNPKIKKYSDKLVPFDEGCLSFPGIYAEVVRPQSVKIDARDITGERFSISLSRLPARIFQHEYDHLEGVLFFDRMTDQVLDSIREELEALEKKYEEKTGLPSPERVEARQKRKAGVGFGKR

AtPDF variant I42W = biological target: T2, AtPDF variant I42W (Arabidopsis thaliana, UniProt Q9FUZ2, I122W)
T2 construct: Expression and purification of mature Arabidopsis thaliana PDF1B and all variants (i.e., AtPDF); made in house
Description: as §1, §2

AtPDF variant I42F = biological target: T3, AtPDF variant I42F (Arabidopsis thaliana, UniProt Q9FUZ2, I122F)
T3 construct: Expression and purification of mature Arabidopsis thaliana PDF1B and all variants (i.e., AtPDF); made in house
Description: as §1, §2

AtPDF variant I42N = biological target: T4, AtPDF variant I42N (Arabidopsis thaliana, UniProt Q9FUZ2, I122N)
T4 construct: Expression and purification of mature Arabidopsis thaliana PDF1B and all variants (i.e., AtPDF); made in house
Description: as §1, §2

AtPDF variant I42A = biological target: T5, AtPDF variant I42A (Arabidopsis thaliana, UniProt Q9FUZ2, I122A)
T5 construct: Expression and purification of mature Arabidopsis thaliana PDF1B and all variants (i.e., AtPDF); made in house
Description: as §1

AtPDF variant G41M = biological target: T6, AtPDF variant G41M (Arabidopsis thaliana, UniProt Q9FUZ2, G121M)
T6 construct: Expression and purification of mature Arabidopsis thaliana PDF1B and all variants (i.e., AtPDF); made in house
Description: as §1

CSCC[C@H](NC=O)C(=O)N[C@@H](C)C(=O)N[C@@H](CO)C(=O)O [Fo-Met-Ala-Ser]
Km (AtPDF variant I130A): 5 ± 3 mM | Km (AtPDF variant I42W): 5.3 ± 0.5 mM | Km (AtPDF variant I42F): 9.8 ± 2 mM | Km (AtPDF variant I42N): 5 ± 3 mM | Km (AtPDF variant I42A): 10.1 ± 2.6 mM | Km (AtPDF variant G41M): 5.8 ± 1.5 mM

From publication PMC3101196, “Trapping Conformational States Along Ligand-Binding Dynamics of Peptide Deformylase: The Impact of Induced Fit on Enzyme Catalysis” (PLoS Biology, 2011)
